Data set [1] concerns the target Sterol 14-alpha demethylase (Trypanosoma cruzi (strain CL Brener)) (UniProt Q7Z1V1). Description: Inhibition of recombinant full-length Trypanosoma cruzi CYP51 assessed as molar ratio of inhibitor to enzyme which causes 2 fold decrease in enzyme activity in 5 mins by HPLC analysis.
The target is the same in data set [2]. The experiment in a line: Inhibition of recombinant full-length Trypanosoma cruzi CYP51 assessed as molar ratio of inhibitor to enzyme which causes 2 fold decrease in enzyme activity in 1 hr by HPLC analysis.
Data set [3] in a line: Selectivity index, ratio of IC50 for rat L6 cells to IC50 for trypomastigote stage of Trypanosoma brucei rhodesiense STIB 900. The class given is toxicity, cell-based. The following applies: read-out: Ratio IC50.
A short description of data set [4]: Selectivity index, ratio of IC50 for rat L6 cells to IC50 for amastigote stage of Trypanosoma cruzi Tulahuen C4 infected in rat L6 cells. Type of data set: toxicity, cell-based. The following applies: read-out: Ratio IC50.

Sequences of proteins named here, by UniProt entry; tags and fusion partners are left off. A change or cut given only in a name is not applied to a line headed by its entry.
UniProt Q7Z1V1: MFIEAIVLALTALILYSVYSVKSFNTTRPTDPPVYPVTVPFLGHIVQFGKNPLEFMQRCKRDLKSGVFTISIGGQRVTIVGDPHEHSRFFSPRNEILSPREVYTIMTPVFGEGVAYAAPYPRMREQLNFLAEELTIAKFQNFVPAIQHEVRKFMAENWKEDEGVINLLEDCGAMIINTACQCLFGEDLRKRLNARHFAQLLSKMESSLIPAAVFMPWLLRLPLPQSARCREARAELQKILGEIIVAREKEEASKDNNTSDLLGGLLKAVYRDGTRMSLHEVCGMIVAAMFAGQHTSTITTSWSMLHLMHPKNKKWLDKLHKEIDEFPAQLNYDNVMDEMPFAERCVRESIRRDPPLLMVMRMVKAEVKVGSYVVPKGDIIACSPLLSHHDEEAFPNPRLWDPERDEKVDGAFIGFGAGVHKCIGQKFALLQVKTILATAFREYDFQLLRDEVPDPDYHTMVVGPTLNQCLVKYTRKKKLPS

In the case of `O=[N+]([O-])c1ncn(CC(O)(Cn2cncn2)c2ccc(F)cc2F)n1` (stereo not drawn), the Ratio worked out at 5 in data set [1] and 32 in data set [2].

With `CC1(c2ccc(-n3ccnc3)cc2)CO1` (stereo not drawn), the selectivity ratio in data set [3] amounted to 3.64; in data set [4], 1.48.

On to `O=[N+]([O-])c1ncn(CC(O)(Cn2cncn2)c2ccc(-c3ccccc3)cc2)n1` (stereo not drawn), for which the Ratio in data set [1] is under 1; in data set [2], 3.

With `N#Cc1ccc(-c2ccc(NC(=O)Cn3cnc([N+](=O)[O-])n3)cc2)cc1`, the Ratio in data set [1] stood at 4; in data set [2] it was 36.

The values are drawn from ChEMBL document CHEMBL3407483, “Novel 3-nitrotriazole-based amides and carbinols as bifunctional antichagasic agents” (J Med Chem, 2015).
